What was measured:
Cannabinoid receptor 1 = Cannabinoid receptor 1 (Homo sapiens, UniProt P21554); assay: (§1) Antagonist activity at human Gi/o-coupled CNR1 expressed in CHOK1 cells assessed as inhibition in CP55940-induced beta-arrestin 2 recruitment at 20 uM incubated for 30 mins followed by CP55940 addition and measured after 90 or 180 mins by pathhunter beta-arrestin assay relative to control; assay type: cell-based
Procedure, shortened: (§2)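 PathHunter beta-arrestin recruitment, antagonist mode, run at DiscoverX. Cells seeded and held at 37 °C, then preincubated with test sample for 30 min at 37 °C or room temperature (1% vehicle). Agonist then added at EC80 for 90 or 180 min. […] IC50 comes from concentration–response runs in the same format.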

Sequences of proteins named here, by UniProt entry; tags and fusion partners are left off. A change or cut given only in a name is not applied to a line headed by its entry.
UniProt P21554, whole entry: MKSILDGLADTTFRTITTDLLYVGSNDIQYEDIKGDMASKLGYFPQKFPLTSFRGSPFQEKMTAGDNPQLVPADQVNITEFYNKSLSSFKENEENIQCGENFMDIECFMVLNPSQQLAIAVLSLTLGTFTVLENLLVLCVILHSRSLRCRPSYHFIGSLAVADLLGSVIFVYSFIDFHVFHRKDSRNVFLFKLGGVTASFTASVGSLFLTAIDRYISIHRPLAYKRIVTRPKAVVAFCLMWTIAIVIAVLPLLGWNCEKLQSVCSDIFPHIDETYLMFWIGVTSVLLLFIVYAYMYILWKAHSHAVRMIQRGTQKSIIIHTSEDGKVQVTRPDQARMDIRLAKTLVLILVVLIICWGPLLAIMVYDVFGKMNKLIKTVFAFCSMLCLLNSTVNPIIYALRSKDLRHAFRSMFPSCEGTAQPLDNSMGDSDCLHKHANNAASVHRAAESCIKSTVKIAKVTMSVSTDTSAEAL
UniProt P14416, whole entry: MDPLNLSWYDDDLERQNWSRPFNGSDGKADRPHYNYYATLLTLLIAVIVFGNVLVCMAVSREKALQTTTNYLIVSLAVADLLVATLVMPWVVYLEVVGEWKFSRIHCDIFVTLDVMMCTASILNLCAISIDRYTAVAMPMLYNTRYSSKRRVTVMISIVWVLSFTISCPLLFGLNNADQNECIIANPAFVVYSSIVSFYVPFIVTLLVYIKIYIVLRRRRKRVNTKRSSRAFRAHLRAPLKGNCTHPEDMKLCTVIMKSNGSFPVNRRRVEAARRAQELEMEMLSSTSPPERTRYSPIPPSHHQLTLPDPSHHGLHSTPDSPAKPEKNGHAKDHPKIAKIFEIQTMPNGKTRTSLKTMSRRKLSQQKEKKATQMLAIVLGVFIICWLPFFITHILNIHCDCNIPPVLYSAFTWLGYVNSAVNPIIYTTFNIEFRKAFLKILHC
UniProt P08173, whole entry: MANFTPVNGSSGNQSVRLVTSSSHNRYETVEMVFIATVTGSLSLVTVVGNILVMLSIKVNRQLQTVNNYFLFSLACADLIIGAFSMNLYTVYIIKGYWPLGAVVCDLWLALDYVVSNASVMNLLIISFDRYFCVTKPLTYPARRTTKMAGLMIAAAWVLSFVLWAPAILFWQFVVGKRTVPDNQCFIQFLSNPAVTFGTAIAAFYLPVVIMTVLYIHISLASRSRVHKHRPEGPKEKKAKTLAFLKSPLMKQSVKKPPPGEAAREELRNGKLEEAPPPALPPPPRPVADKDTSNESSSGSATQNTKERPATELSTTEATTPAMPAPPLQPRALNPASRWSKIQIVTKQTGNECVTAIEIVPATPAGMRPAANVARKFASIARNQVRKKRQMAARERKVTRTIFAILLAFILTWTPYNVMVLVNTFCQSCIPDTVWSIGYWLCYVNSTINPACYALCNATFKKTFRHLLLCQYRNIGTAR
UniProt P34972, whole entry: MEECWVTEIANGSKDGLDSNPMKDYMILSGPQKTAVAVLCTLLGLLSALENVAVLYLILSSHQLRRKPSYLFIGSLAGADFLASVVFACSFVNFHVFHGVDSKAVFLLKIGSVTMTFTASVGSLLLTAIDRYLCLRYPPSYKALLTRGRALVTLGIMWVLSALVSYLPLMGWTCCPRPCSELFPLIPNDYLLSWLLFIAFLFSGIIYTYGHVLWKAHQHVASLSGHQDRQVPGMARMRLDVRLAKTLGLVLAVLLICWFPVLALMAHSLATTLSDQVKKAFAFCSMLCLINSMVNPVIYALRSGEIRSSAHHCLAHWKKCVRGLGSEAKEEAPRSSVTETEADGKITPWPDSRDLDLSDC
UniProt O43614, whole entry: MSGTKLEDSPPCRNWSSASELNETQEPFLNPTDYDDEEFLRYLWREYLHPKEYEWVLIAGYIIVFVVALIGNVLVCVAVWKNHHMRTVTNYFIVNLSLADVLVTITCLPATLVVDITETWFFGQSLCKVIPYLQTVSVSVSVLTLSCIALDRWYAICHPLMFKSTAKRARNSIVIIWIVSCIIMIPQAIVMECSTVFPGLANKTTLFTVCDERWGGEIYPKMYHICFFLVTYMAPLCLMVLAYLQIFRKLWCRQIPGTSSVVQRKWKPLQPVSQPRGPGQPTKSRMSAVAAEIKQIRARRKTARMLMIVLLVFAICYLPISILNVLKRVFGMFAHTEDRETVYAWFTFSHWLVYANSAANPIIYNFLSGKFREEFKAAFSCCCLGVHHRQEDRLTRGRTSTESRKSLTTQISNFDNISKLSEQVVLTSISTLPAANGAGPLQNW
UniProt P51685, whole entry: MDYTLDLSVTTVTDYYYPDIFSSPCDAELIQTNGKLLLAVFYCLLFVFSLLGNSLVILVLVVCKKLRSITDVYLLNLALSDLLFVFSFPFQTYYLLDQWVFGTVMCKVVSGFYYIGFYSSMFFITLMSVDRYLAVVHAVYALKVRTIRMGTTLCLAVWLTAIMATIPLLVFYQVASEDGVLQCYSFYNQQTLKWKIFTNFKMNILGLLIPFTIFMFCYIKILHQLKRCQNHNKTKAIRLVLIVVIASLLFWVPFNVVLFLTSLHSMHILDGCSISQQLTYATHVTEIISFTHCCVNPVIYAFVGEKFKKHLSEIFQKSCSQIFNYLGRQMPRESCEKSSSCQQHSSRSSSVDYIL
UniProt P61073, whole entry: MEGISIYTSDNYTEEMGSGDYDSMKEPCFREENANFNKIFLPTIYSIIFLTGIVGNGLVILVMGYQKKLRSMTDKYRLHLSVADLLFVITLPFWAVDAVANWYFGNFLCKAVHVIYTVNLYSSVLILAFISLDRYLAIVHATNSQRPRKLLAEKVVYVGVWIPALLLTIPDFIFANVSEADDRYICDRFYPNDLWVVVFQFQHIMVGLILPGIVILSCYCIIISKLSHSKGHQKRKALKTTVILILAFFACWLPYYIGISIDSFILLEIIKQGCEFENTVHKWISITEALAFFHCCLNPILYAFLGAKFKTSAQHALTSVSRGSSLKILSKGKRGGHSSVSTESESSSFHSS
UniProt P35367, whole entry: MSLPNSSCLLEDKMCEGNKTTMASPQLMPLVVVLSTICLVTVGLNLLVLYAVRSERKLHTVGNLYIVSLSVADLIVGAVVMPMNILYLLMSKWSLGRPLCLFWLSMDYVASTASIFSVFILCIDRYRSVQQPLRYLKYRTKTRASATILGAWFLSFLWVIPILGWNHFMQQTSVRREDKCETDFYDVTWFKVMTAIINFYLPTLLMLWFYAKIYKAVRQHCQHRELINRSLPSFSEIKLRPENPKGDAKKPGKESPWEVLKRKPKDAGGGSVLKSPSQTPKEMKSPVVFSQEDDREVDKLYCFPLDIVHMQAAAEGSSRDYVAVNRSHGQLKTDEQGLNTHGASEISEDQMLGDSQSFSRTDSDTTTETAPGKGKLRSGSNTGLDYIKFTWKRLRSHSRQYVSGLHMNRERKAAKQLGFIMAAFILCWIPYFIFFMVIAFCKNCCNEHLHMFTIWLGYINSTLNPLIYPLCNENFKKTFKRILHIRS
UniProt P43119: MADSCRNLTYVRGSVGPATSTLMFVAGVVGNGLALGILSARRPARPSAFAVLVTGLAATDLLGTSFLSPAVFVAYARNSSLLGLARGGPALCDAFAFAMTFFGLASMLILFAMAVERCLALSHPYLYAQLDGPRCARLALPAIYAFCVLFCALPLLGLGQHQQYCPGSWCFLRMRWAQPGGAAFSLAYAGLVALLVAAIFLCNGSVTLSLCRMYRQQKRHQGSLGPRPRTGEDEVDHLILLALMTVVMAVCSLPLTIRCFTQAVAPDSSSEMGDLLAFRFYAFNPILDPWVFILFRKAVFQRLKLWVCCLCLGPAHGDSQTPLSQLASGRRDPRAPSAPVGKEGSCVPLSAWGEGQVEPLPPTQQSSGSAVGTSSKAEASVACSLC

[1] = biological target: D(2) dopamine receptor (Homo sapiens) (UniProt P14416); assay: Antagonist activity at human Gi/o-coupled DRD2L expressed in CHOK1 cells assessed as inhibition in dopamine-induced beta-arrestin 2 recruitment at 20 uM incubated for 30 mins followed by dopamine addition and measured after 90 or 180 mins by pathhunter beta-arrestin assay relative to control; assay type: cell-based; procedure, shortened: as §2
[2] = biological target: Muscarinic acetylcholine receptor M4 (Homo sapiens, UniProt P08173); assay: as §1, with “Gs/Gi/o-coupled CHRM4” for “Gi/o-coupled CNR1”, “acetylcholine-induced” for “CP55940-induced”, “acetylcholine” for “CP55940”; assay type: cell-based; procedure, shortened: as §2
Cannabinoid receptor 2 = Cannabinoid receptor 2 (Homo sapiens, UniProt P34972); assay: Antagonist activity at human Gi/o-coupled CNR2 expressed in CHOK1 cells assessed as inhibition in CP55940-induced beta-arrestin 2 recruitment at 20 uM incubated for 30 mins followed by CP55940 addition and measured after 90 or 180 mins by pathhunter beta-arrestin assay relative to control; assay type: cell-based; procedure, shortened: as §2
Orexin receptor type 2 = Orexin receptor type 2 (Homo sapiens, UniProt O43614); assay: (§3) Antagonist activity at human Gq-coupled HCRTR2 expressed in CHOK1 cells assessed as inhibition in Orexin A-induced beta-arrestin 2 recruitment at 20 uM incubated for 30 mins followed by Orexin A addition and measured after 90 or 180 mins by pathhunter beta-arrestin assay relative to control; assay type: cell-based; procedure, shortened: as §2
[3] = biological target: C-C chemokine receptor type 8 (Homo sapiens, UniProt P51685); assay: Antagonist activity at human CCR8 expressed in CHOK1 cells assessed as inhibition in CCL1-induced beta-arrestin 2 recruitment at 20 uM incubated for 30 mins followed by CCL1 addition and measured after 90 or 180 mins by pathhunter beta-arrestin assay relative to control; assay type: cell-based; procedure, shortened: as §2
[4] = biological target: C-X-C chemokine receptor type 4 (Homo sapiens) (UniProt P61073); assay: Antagonist activity at human Gi/o-coupled CXCR4 expressed in mouse C2C12 cells assessed as inhibition in CXCL12-induced beta-arrestin 2 recruitment at 20 uM incubated for 30 mins followed by CXCL12 addition and measured after 90 or 180 mins by pathhunter beta-arrestin assay relative to control; assay type: cell-based; procedure, shortened: as §2
[5] = biological target: Histamine H1 receptor (Homo sapiens) (UniProt P35367); conditions: at 20 µM
[6] = biological target: T1, Neuropeptide S receptor (Homo sapiens) (UniProt Q6W5P4); assay: as §3, with “NPSR1b” for “HCRTR2”, “human U2OS” for “CHOK1”, “neuropeptide S-induced” for “Orexin A-induced”, “neuropeptide S” for “Orexin A”; assay type: cell-based; procedure, shortened: as §2
T1 sequence (whole entry): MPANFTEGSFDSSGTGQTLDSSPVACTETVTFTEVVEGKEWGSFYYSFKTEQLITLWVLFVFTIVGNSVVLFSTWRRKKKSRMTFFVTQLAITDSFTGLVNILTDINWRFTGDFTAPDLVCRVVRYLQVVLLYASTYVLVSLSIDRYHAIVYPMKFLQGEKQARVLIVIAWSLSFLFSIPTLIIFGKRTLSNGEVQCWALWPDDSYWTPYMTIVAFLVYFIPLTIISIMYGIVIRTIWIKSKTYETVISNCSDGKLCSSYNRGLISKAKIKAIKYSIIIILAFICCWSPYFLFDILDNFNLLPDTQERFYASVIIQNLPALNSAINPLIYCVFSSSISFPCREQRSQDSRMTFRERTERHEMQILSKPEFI

[7] = biological target: T2, Prolactin-releasing peptide receptor (Homo sapiens) (UniProt P49683); assay: as §3, with “PRLHR” for “HCRTR2”, “prolactin releasing peptide (1 to 31)-induced” for “Orexin A-induced”, “prolactin releasing peptide (1 to 31)” for “Orexin A”; assay type: cell-based; procedure, shortened: as §2
T2 sequence (whole entry): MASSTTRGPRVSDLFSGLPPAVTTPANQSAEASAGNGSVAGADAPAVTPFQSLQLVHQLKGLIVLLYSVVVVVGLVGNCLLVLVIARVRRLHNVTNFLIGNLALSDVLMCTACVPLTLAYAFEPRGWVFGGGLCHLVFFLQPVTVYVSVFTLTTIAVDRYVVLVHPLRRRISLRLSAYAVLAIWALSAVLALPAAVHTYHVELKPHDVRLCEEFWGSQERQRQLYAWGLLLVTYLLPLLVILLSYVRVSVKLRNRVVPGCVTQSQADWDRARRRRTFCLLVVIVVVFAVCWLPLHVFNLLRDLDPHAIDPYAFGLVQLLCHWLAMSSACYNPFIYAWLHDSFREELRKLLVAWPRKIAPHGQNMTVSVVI

[8] = biological target: T3, Glucose-dependent insulinotropic receptor (Homo sapiens) (UniProt Q8TDV5); assay: Antagonist activity at human GPR119 assessed as inhibition in oleoylethanolamide-induced beta-arrestin 2 recruitment at 20 uM incubated for 30 mins followed by oleoylethanolamide addition and measured after 90 or 180 mins by pathhunter beta-arrestin assay relative to control; procedure, shortened: as §2
T3 sequence (whole entry): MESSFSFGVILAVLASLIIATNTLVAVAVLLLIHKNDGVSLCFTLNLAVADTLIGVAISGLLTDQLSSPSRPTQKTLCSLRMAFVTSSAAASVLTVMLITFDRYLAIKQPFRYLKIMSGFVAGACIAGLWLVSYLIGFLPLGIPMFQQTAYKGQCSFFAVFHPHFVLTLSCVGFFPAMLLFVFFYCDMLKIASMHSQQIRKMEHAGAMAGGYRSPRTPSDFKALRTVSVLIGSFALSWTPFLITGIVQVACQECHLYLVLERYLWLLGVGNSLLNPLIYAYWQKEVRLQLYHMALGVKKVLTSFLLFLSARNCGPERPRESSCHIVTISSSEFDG

Prostacyclin receptor = Prostacyclin receptor (Homo sapiens, UniProt P43119); assay: Antagonist activity at human Gs-coupled PTGIR assessed as inhibition in beraprost-induced beta-arrestin 2 recruitment at 20 uM incubated for 30 mins followed by beraprost- addition and measured after 90 or 180 mins by pathhunter beta-arrestin assay relative to control; procedure, shortened: as §2

SMILES | inhibition (Cannabinoid receptor 1) | inhibition [1] | inhibition [2] | inhibition (Cannabinoid receptor 2) | inhibition (Orexin receptor type 2) | inhibition [3] | inhibition [4] | inhibition [5] | inhibition [6] | inhibition [7] | inhibition [8] | inhibition (Prostacyclin receptor)
CC[C@]12C=C(C(=O)OC)n3c(c(CCNC(=O)c4ccc(Br)cc4)c4ccccc43)[C@H]1N(C#N)CCC2 | 69% | 15% | 55% | 51% | 29% | 83% | 38% | 25% | 76% | 82% | 66% | 76%
CC[C@]12CCCN(C(=O)c3cccc(Br)c3)CCc3c(n(c4ccccc34)C(=O)C1)[C@@H]2OC | 90% | 6% | 62% | 100% | 26% | 75% | 80% |  | 81% | 84% | 86% | 97%
